Several values for one entry are separate records, joined by “and”; a condition that tells them apart may be missing. Identical values can stand only once.

This assay has as its system Calf thymus DNA. To be noted: Bos taurus.
As for `Cc1ccc2nc3c(C(=O)NCCN(C)C)cccc3nc2c1`, the Log K was 6.8 and 6.82.

As to `COc1ccc(C(=O)NCCN(C)C)c2nc3ccccc3nc12`, the Log K was 6.58 and 6.6.

On to `CN(C)CCNC(=O)c1cc(Cl)cc2nc3ccccc3nc12`, for which the Log K is 7.08 and 7.22.

Turning to `COc1cccc2nc3cccc(C(=O)NCCN(C)C)c3nc12`, the Log K is 6.59 and 7.

As for `CN(C)CCNC(=O)c1cc2ccccc2c2nc3ccccc3nc12`, the Log K was 7.63 and 7.29.

For `Cc1ccc2nc3cccc(C(=O)NCCN(C)C)c3nc2c1`, the Log K is 6.43 and 6.82.

With `COc1ccc2nc3cccc(C(=O)NCCN(C)C)c3nc2c1`, the Log K is 6.48 and 6.96.

For `Cc1cc(C(=O)NCCN(C)C)c2nc3ccccc3nc2c1`, the Log K was 6.48 and 6.55.

Turning to `O=C(NCCNCCO)c1cccc2nc3ccccc3nc12`, the Log K was 6.32 and 6.5.

Turning to `CN(C)CCCCNC(=O)c1cccc2nc3ccccc3nc12`, the Log K is 6.3 and 6.34.

Take `COc1ccc2nc3c(C(=O)NCCN(C)C)cccc3nc2c1`: the Log K is 6.4 and 6.3.

With `CCN(CC)CCNC(=O)c1cccc2nc3ccccc3nc12`, the Log K is 6.4 and 6.26.

For `CN(C)CCCNC(=O)c1cccc2nc3ccccc3nc12`, the Log K is 6.29 and 6.14.

`CN(C)CCNC(=O)c1cccc2nc3c(ccc4ccccc43)nc12`: the Log K was 7.75 and 7.63.

For `Cc1cccc2nc3cccc(C(=O)NCCN(C)C)c3nc12`, the Log K is 6.76 and 6.93.

Take `O=C(NCCN1CCOCC1)c1cccc2nc3ccccc3nc12`: the Log K is 6.42 and 6.49.

For the compound `COc1ccc2nc3ccccc3nc2c1C(=O)NCCN(C)C`, the Log K was 6.65 and 6.7.

As to `COc1cccc2nc3c(C(=O)NCCN(C)C)cccc3nc12`, the Log K was 6.63 and 6.47.

With `Cc1ccc(C(=O)NCCN(C)C)c2nc3ccccc3nc12`, the Log K was 6.78 and 6.73.

For the compound `COc1cc(C(=O)NCCN(C)C)c2nc3ccccc3nc2c1`, the Log K is 6.96 and 7.

As for `CN(C)CCNC(=O)c1cccc2nc3ccccc3nc12`, the Log K was 6.58 and 6.86.

In the case of `CN(C)CCNC(=O)c1c(Cl)ccc2nc3ccccc3nc12`, the Log K was 6.24 and 6.22.

As for `CN(C)CCNC(=O)c1cccc2nc3c(Cl)cccc3nc12`, the Log K was 6.76 and 6.93.

For `CN(C)CCNC(=O)c1cccc2nc3ccc4ccccc4c3nc12`, the Log K was 7.12 and 6.7.

As to `Cc1cccc2nc3c(C(=O)NCCN(C)C)cccc3nc12`, the Log K is 6.68 and 6.74.

(Values after ChEMBL document CHEMBL1123882, “Potential antitumor agents. 51. Synthesis and antitumor activity of substituted phenazine-1-carboxamides” (J Med Chem, 1987).)
